Source: patent US20150352040A1 (priority 2010, published 2015)

Conditions: in comparison to a 15 mg dose of hydrocodone

CN1CC[C@]23c4c5ccc(O)c4O[C@H]2C(=O)CC[C@H]3[C@H]1C5 [Hydromorphone]
Calculated Dose (mg), equianalgesic: 3.375 mg
